In patent publication US12324843B2, “Compositions and methods for delivery of biomacromolecule agents” (The Regents of the University of Michigan, priority 2015, dated 2025):

Assay: Storage stability of sHDL nanodiscs
Type: physicochemical
Conditions: DMPC sHDL stored at 4° C.

Sequence: PVLDLFRELLNELLEALKQKLK [22A]
- stability of sHDL suspension formed with the peptide: stable for one month
